# From patent US20130237511A1, “Copper Ion Delivery Platform for Pharmaceutical Agents” (University System of Georgia, priority 2012, published 2013)
# Read-outs that look alike come from different tables or passages of the source.
# Assays:
# [1] = system: National Cancer Institute 60 cancer cell line panel
# [2] = system: National Cancer Institute 60 cancer cell line panel; assay: NCI 60 cell line panel, single dose run, average over panel; format: cell-based; conditions: average over NCI 60 cell line panel
compound,measurement,setting,value
"CC(=O)O[C@H]1C(=O)[C@@]2(C)[C@H]([C@H](OC(=O)c3ccccc3)[C@]3(O)C[C@H](OC(=O)[C@H](O)[C@@H](NC(=O)c4ccccc4)c4ccccc4)C(C)=C1C3(C)C)[C@]1(OC(C)=O)CO[C@@H]1C[C@@H]2O [Taxol, paclitaxel, reference compound]",logGI50,[1]; 786-0 (Renal),−7.59 Molar
same,logGI50,[1]; A498 (Renal),−8 Molar
same,logGI50,[1]; A549/ATCC (Non-Small Cell Lung),−7.98 Molar
same,logGI50,[1]; ACHN (Renal),−6.02 Molar
same,logGI50,[1]; Average of panel,−7.588 Molar
same,logGI50,[1]; BT-549 (Breast),−7.9 Molar
same,logGI50,[1]; CAKI-1 (Renal),−6.5 Molar
same,logGI50,[1]; CCRF-CEM (Leukemia),−8 Molar
same,logGI50,[1]; COLO205 (Colon),−8 Molar
same,logGI50,[1]; DU-145 (Prostate),−8 Molar
same,logGI50,[1]; EKVX (Non-Small Cell Lung),−6.96 Molar
same,logGI50,[1]; HCC-2998 (Colon),−7.99 Molar
same,logGI50,[1]; HCT-15 (Colon),−6.54 Molar
same,logGI50,[1]; HCT-116 (Colon),−8 Molar
same,logGI50,[1]; HL-60(TB) (Leukemia),−8 Molar
same,logGI50,[1]; HOP-62 (Non-Small Cell Lung),−7.62 Molar
same,logGI50,[1]; HOP-92 (Non-Small Cell Lung),−7.82 Molar
same,logGI50,[1]; HS578T (Breast),−8 Molar
same,logGI50,[1]; HT29 (Colon),−8 Molar
same,logGI50,[1]; IGROV1 (Ovarian),−7.74 Molar
same,logGI50,[1]; K-562 (Leukemia),−7.9 Molar
same,logGI50,[1]; KM12 (Colon),−8 Molar
same,logGI50,[1]; LOXIMVI (Melanoma),−8 Molar
same,logGI50,[1]; M14 (Melanoma),−7.99 Molar
same,logGI50,[1]; MALME-3M (Melanoma),−6.34 Molar
same,logGI50,[1]; MCF7 (Breast),−8 Molar
same,logGI50,[1]; MDA-MB-231/ATCC (Breast),−8 Molar
same,logGI50,[1]; MDA-MB-435 (Melanoma),−7.89 Molar
same,logGI50,[1]; MDA-MB-468 (Breast),−8 Molar
same,logGI50,[1]; MDA-N (Breast),−8 Molar
same,logGI50,[1]; MOLT-4 (Leukemia),−7.8 Molar
same,logGI50,[1]; NCI-H23 (Non-Small Cell Lung),−7.94 Molar
same,logGI50,[1]; NCI-H226 (Non-Small Cell Lung),−6.01 Molar
same,logGI50,[1]; NCI-H322M (Non-Small Cell Lung),−8 Molar
same,logGI50,[1]; NCI-H460 (Non-Small Cell Lung),−8 Molar
same,logGI50,[1]; NCI-H522 (Non-Small Cell Lung),−8 Molar
same,logGI50,[1]; NCI/ADR-RES (Ovarian),−5.72 Molar
same,logGI50,[1]; OVCAR-3 (Ovarian),−7.85 Molar
same,logGI50,[1]; OVCAR-4 (Ovarian),−5.83 Molar
same,logGI50,[1]; OVCAR-5 (Ovarian),−7.82 Molar
same,logGI50,[1]; OVCAR-8 (Ovarian),−8 Molar
same,logGI50,[1]; PC-3 (Prostate),−8 Molar
same,logGI50,[1]; RPMI-8226 (Leukemia),−8 Molar
same,logGI50,[1]; RXF393 (Renal),−8 Molar
same,logGI50,[1]; SF-268 (CNS),−7.96 Molar
same,logGI50,[1]; SF-295 (CNS),−7.83 Molar
same,logGI50,[1]; SF-539 (CNS),−8 Molar
same,logGI50,[1]; SK-MEL-2 (Melanoma),−8 Molar
same,logGI50,[1]; SK-MEL-5 (Melanoma),−8 Molar
same,logGI50,[1]; SK-MEL-28 (Melanoma),−6.06 Molar
same,logGI50,[1]; SK-OV-3 (Ovarian),−7.95 Molar
same,logGI50,[1]; SN12C (Renal),−7.2 Molar
same,logGI50,[1]; SNB-19 (CNS),−7.94 Molar
same,logGI50,[1]; SNB-75 (CNS),−8 Molar
same,logGI50,[1]; SR (Leukemia),−7.5 Molar
same,logGI50,[1]; SW-620 (Colon),−8 Molar
same,logGI50,[1]; T-47D (Breast),−7.06 Molar
same,logGI50,[1]; TK-10 (Renal),−7.03 Molar
same,logGI50,[1]; U251 (CNS),−8 Molar
same,logGI50,[1]; UACC-62 (Melanoma),−7.87 Molar
same,logGI50,[1]; UACC-257 (Melanoma),−6.64 Molar
same,logGI50,[1]; UO-31 (Renal),−6.43 Molar
copper(II)-(quinine)2^+ [CuQ2],average growth rate of the cancer cells compared to the controls,[2],103.70%
